Results taken from US20160041146A1 (priority 2014, published 2016).

Type: in vivo, human
Source text: Determining the amount of a drug in fluid of the subject may be accomplished by use of any method known to those skilled in the art. Non-limiting examples for determining the amount of a drug in fluid of a subject include fluorescence polarization immunoassay (“FPIA,” Abbott Diagnostics), mass spectrometry (MS), gas chromatography-mass spectrometry (GC-MS-MS), liquid chromatography-mass spectrometry (LC-MS-MS), and the like. In one embodiment, LC-MS-MS methods known to those skilled in the art are used to determine a raw level, amount or concentration of a drug in urine of the subject. In one embodiment, a raw level or concentration of a drug in urine of a subject is measured and reported as a ratio, percent, or in relationship to the amount of fluid. The amount of fluid may be expressed as a unit volume, for example, in L, mL, μL, pL, ounce, etc. In one embodiment, the raw amount of a drug in urine of a subject may be expressed as an absolute level or value, for example, in g, mg, μg, ng, pg, etc.
In an embodiment, the raw primary metabolite and secondary metabolite concentrations measured in urine of the subject are transformed and normalized (hereafter “Equation 3”): […]

## CN1CC[C@]23c4c5ccc(O)c4O[C@H]2C(=O)CC[C@H]3[C@H]1C5 [hydromorphone]
Hydrocodone model population, approximately 84,000 patient results over one year, average daily dosage 32 mg
  median urine drug concentration: 441 ng/mL
Patient validity data set for Hydrocodone model, 50 subjects, average hydrocodone dosage 26 mg
  Urine concentration (median): 612 ng/mL
